The target in the test is human granzyme B (Homo sapiens, UniProt P10144). As to the kind of experiment: Fluorogenic assay for granzyme B (Ac-IEPD-AMC substrate). The class given is biochemical. The note with it: read-out: Gzm B Ki; recombinant granzyme B, substrate Ac-IEPD-AMC 10 μM, pH 7.5, 25° C. The source says: Plasmids pMelBac and the TA Cloning Kit (pCR2.1) were purchased from Invitrogen (Carlsbad, Calif.). The Bac-to-Bac Baculovirus Expression System and all cell culture supplies were from Life Technologies (Gaithersburg, Md.). The human granzyme B protease has been identified and is known in the art. See, for example, Poe, et al., J. Biol. Chem. 266, 98-103. A vector was generated for secreted protein expression in the Bac-to-Bac system. The honeybee melittin secretion signal was amplified from pMelBac by PCR with primers 5′-GTGT AGATCTATGAAATTCTTAGTCAACG-3′ and 5′-TTCAGCAGAGTCGACTCCAAG-3′. The amplified product contained a BglII site upstream of the melittin secretion signal and spanned the multiple cloning site of the vector. The fragment was digested with BglII and EcoRI and subcloned into BamHI and EcoRI digested pFastBac. The resulting vector was designated pSecBac. Activatable tagged human granzyme B was cloned into pSecBac in two sequential steps. […] The sample was readjusted to a final pH 8.0, CaCl2 (3 mM final concentration) and factor Xa (Pharmacia, 10 units per mg of protein) were added, and incubated for 18 hours at room temperature to generate active granzyme B. Under these conditions, complete cleavage is achieved. […]

By UniProt entry, the sequences of proteins in these tests, tags left out. Residues count along the entry.
UniProt P10144, 21-247 limits assumed: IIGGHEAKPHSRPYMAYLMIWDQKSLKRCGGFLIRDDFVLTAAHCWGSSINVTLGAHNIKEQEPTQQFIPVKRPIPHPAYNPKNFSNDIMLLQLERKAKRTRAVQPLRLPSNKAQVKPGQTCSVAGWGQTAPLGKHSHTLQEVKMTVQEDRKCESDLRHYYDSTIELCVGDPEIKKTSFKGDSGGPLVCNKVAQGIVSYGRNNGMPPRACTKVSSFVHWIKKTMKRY

Each structure is given as a SMILES string.

By Ki is commonly meant the dissociation constant of the complex between target and ligand, obtained from inhibition or displacement. In the case of `CC[C@H](C)[C@H](NC(=O)Cc1ccccc1)C(=O)N[C@H]1CCc2cccc3c2N(C1=O)[C@H](C(=O)NCc1nn[nH]n1)C3`, the inhibition constant Ki came out at 22 nM.

Values taken from US20060019945A1, “Granzyme b inhibitors” (priority 2002, published 2006).
